From patent US20240009191A1, “METHOD AND COMPOSITION FOR THE TREATMENT OF DISEASE” (DIMERIX BIOSCIENCE PTY LTD, priority 2019, published 2024) come the findings set out here.

Chains of the proteins cited; added tags and fusions are not shown.
UniProt P25025, whole entry: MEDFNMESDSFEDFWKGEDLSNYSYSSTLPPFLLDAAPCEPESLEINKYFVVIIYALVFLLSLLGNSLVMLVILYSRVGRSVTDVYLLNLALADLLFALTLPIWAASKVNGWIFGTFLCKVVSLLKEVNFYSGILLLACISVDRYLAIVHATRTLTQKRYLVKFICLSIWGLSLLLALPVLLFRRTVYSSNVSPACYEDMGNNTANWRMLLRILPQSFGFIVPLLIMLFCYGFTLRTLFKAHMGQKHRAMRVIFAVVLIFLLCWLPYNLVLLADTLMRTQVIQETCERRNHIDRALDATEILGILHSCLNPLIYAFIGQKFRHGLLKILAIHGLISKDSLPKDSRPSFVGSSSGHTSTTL

For this assay, the target named is AT1R-CXCR2 heteromer (Homo sapiens, UniProt P25025+P30556). Description: BRET Gi coupling, CXCR2/Rluc8, Venus/mGsi and HA-AT1R, pre-treatment with antagonists/inverse agonists. Type of assay: cell-based. Conditions: FIGS. 6-15. As for the experimental part: HEK293FT cells were seeded in 6-well plates at a density of approximately 700,000 cells/well and maintained at 37° C., 5% CO2 in Complete Media (DMEM containing 0.3 mg/ml glutamine, 100 IU/ml penicillin and 100 μg/ml streptomycin (Gibco/Thermo Fisher)) supplemented with 10% fetal calf serum (FCS; Bovogen). Transient transfections were carried out 24 h after seeding using FuGene6™ (Promega) according to manufacturer instructions. 24 h post-transfection, cells were washed with PBS, detached using 0.05% trypsin/0.53 mM EDTA, resuspended in HEPES-buffered phenol red free Complete Media containing 5% FCS and added to a poly-L-lysine-coated white 96-well microplate (Greiner Bio-One). 48 h post-transfection, bioluminescence resonance energy transfer (BRET) assays were carried out following pre-incubation of cells with EnduRen™ (Promega) at a final concentration of 30 μM, at 37° C., 5% CO2 for 2 h. BRET measurements were taken at 37° C. using the LUMlstar™ or CLARIOstar™ (BMG Labtech).
For antagonist/inverse agonist assays, cells were pre-incubated with EnduRen for 1.5 hours, followed by the addition of vehicle or antagonists/inverse agonists (10 μM) for another 30 minutes.
The BRET signal observed between interacting proteins is normalized by subtracting the background BRET ratio. […] In the following examples, the second calculation will be used and the signal is described as ligand-induced BRET′. Furthermore, for data shown in FIGS. 4 to 20, all data points in a given set are corrected relative to the final data point prior to agonist treatment, which is fixed to zero. In keys on FIGS. 7 to 20, “>” means “followed by after 50 minutes”, with agonists added at time zero on the x-axes.
Prior to agonist treatment (added at 0 minutes), a baseline BRET signal was recorded for each of the combinations for 20 minutes. Data were calculated as ligand-induced BRET relative to the ‘vehicle followed by vehicle’ (veh>veh) data set.
For orientation: In BRET a luciferase serves as donor, and the signal depends on an acceptor being close.

On to `CCCc1nc(C(C)(C)O)c(C(=O)O)n1Cc1ccc(-c2ccccc2-c2nnn[nH]2)cc1` [olmesartan], for which the “effect of CXCL8 only on CXCR2/Rluc8-Venus/mGsi BRET” value (10 nM CXCL8, 50 minutes after pre-treatment with antagonists/inverse agonists (10 μM)) is “not being altered”. Moreover, for the setting “10 nM CXCL8 and 100 nM AngII, 50 minutes after pre-treatment with antagonists/inverse agonists (10 μM)”, the “effect of CXCL8 and AngII combined on CXCR2/Rluc8-Venus/mGsi BRET” value was “indistinguishable from that observed with CXCL8 only”. Also, the “effect of AngII only on CXCR2/Rluc8-Venus/mGsi BRET” value (100 nM AngII, 50 minutes after pre-treatment with antagonists/inverse agonists (10 μM)) is given as “completely inhibited”.
